Measured values published in patent US20240239801A1, “PYRIMIDO[5,4,D]PYRIMIDINE COMPOUNDS, COMPOSITIONS COMPRISING THEM AND USES THEREOF” (Université de Montréal, priority 2021, published 2024).
Where two headings read alike, the source gives them in different places.

Chains of the proteins cited; added tags and fusions are not shown.
UniProt P15056, whole entry: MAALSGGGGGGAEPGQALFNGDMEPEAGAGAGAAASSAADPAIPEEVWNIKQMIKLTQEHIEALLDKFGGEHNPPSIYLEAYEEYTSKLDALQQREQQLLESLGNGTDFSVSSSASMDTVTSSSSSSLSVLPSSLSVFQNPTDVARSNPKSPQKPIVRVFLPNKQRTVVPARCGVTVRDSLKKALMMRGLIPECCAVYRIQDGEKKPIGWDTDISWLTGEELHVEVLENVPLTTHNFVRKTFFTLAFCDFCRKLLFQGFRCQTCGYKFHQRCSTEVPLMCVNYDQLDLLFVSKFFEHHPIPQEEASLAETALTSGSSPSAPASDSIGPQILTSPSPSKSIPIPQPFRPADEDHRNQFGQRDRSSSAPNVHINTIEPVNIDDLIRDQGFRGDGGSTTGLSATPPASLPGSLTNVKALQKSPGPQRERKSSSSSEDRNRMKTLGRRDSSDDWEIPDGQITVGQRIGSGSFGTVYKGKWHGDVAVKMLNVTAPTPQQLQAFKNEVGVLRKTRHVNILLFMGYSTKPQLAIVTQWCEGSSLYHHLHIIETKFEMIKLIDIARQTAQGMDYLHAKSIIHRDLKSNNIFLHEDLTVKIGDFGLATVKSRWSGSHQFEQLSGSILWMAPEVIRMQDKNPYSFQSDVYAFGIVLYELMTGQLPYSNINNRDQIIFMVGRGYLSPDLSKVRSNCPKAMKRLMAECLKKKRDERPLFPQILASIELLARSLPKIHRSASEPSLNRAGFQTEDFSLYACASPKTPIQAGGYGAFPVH
UniProt P04049, whole entry: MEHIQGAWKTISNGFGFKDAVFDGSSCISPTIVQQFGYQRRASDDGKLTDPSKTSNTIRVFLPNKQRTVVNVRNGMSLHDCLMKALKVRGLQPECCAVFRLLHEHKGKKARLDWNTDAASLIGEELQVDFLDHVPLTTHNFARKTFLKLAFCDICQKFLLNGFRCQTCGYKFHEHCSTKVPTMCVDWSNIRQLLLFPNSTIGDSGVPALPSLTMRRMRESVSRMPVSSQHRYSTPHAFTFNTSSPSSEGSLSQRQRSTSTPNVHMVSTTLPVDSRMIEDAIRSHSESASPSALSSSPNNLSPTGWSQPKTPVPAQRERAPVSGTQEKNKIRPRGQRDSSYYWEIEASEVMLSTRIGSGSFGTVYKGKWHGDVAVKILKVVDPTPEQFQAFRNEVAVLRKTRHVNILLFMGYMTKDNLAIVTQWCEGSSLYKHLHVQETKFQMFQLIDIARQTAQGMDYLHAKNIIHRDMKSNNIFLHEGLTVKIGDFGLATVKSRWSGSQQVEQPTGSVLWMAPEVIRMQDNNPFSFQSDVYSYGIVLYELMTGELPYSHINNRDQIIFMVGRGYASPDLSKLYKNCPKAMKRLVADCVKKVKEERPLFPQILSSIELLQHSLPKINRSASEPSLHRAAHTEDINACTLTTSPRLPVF

Columns and labels:
[1] = tested on: HCT116 pERK; assay: Phospho-ERK inhibition, AlphaLISA SureFire Ultra p-ERK 1/2; settings: for HCT116 (Ymin %): lowest value of the pERK IC50 curve; for IC50: read-out: HCT116 PERK IC50; for HCT116 pERK % Ymin (lowest value of the IC50 curve): value in brackets, Ymin above −20% = minimal or no paradoxical induction
Procedure: All cancer cell lines (A375, A101D, A2058, RKO, HT29 SK-MEL 30, IPC298, HepG2, HCT-116, Lovo, SW620, SW480, NCI-H358, NCI-H2122, Calu-6, NCIH2087, NCIH1755, NCIH1666 and Mewo) were obtained from ATCC and cultured in RPMI-1640 medium (Gibco) supplemented with 5% heat inactivated fetal bovine serum (FBS, Wisent) at 37° C. under 5% CO2. Cells were maintained in T175 flasks (Greiner). They were passaged by removing the culture medium, washing once in 10 mL of room temperature Phosphate Buffered Saline (PBS; Wisent) and incubating at 37° C. with 2 mL of 0.05% Trypsin (Thermo-Fisher). Trypsin was then inactivated by adding complete growth medium and the cells were then replated in a T175 culture dish at the appropriate dilution. All cell lines were routinely tested for mycoplasma contamination. Tissue type and mutational status of each cell line can be found in Table B.
AlphaLISA® SureFire® Ultra™ p-ERK ½ (Thr202/Tyr204) analysis was conducted on cells plated in 100 μL of complete RPMI-1640 growth medium in 96-well flat-bottomed transparent dishes (Costar) at a density indicated in Table C. Cells were maintained overnight at 37° C. under 5% CO2 before treatment with compounds' dilution series for one hour. The cell density in cells/cm^2 corresponds to cell number divided by the area of one well of a 96-well plate ([…]).
In a dilution series 100 μL/well of test substance dilution prepared in complete RPMI-1640 growth media was added to the cells. The dilution series is selected so that ten concentrations cover a range from 30 μM or 10 μM to 0.33 nM. If necessary, the initial concentration of 10 μM is increased to 100 μM or lowered to 1 μM (as in the case of A375 and NCIH1666 cells, which are generally more sensitive to the compounds) and further dilution is carried out accordingly. The final concentration of DMSO in the assay is set at 0.5%.
After treatment, media was removed, and cells were lysed in 50 μL of 1× AlphaScreen Ultra Lysis Buffer (Perkin Elmer). The AlphaLISA® SureFire® Ultra™ p-ERK ½ (Thr202/Tyr2O4) (PerkinElmer) reactions were performed with 5 μL of cell lysate according to the manufacturer's specifications in 384-well proxyplates (Perkin Elmer) followed by overnight incubation of the reactions at room temperature in a humidified chamber. After completion of the reactions, the signals were recorded on an EnVision plate reader (Perkin Elmer) using built in AlphaLISA® settings.
The effect of each compound dilution on the pERK signal was expressed in % inhibition and calculated as follows. An internal 100% inhibition control (1 μM trametinib, cat. No. HY-10999; MedChem Express; CAS No. 871700-17-3) was included in each plate and used as a measure of pERK background. First, the value obtained for trametinib was subtracted from each data point. The average of DMSO (vehicle) controls (set as 0% inhibition) was established and used to calculate % inhibition:
The ability of each compound to inhibit pERK signal was expressed as an IC50 value obtained by plotting the inhibition values for each data point of a dilution series and fitting the obtained curves using a log(agonist) versus response−variable slope (four parameters) function using GraphPadPrism (V7.0).
When present, paradoxical pERK induction is inferred from the negative % inhibition values observed in the pERK IC50 curves of a compound.

[2] = molecular target: BRAF (Homo sapiens, UniProt P15056); assay: BRAF kinase activity assay (ADP-Glo); settings: read-out: Kinase IC50 BRAF
Procedure: (§1) Compound preparation: solid samples of each substances in 1dram vials were suspended in DMSO (Fisher Scientific) at a stock concentration of 20 mM. Stocks were kept at −20° C. and protected from light. If solubility of the compound at 20 mM appeared to be an issue, the initial concentration of the DMSO stock was changed to 10 mM or 5 mM.
(§2) In vitro enzymatic reactions were used for evaluating compounds intrinsic activity against BRAF, CRAF and ARAF. For BRAF and CRAF, 0.375 nM of purified GST-tagged kinases (cat #B4062-10UG and cat #R1656-10UG respectively from Millipore Sigma) were incubated with 75 nM of kinase-dead MEK1 substrate (cat #40075; BPS Bioscience) in the presence of 10 μM of Ultrapure ATP (cat #V9102; Promega; part V915A) with and without the test compound in a buffer containing 50 mM HEPES pH 7.5, 10 mM MgCl2, 1 mM EDTA, 0.01% Brij-35 and 2 mM DTT. Separate reactions were performed with the MEK1 substrate and ATP as a blank control. ARAF, kinase reactions were rigorously the same with the exception that kinase concentration was raised to 3.75 nM (cat #1768-0000-1; Reaction Biology).
(§3) For compound treatment, 5 μL/well of test substance solution are placed in a 384-well proxyplate (Perkin Elmer) and mixed with 2× concentrated kinase reactions. The dilution series is selected so that nine concentrations cover a range from 100 nM to 0.01 nM. […] The final concentration of DMSO in the assay is set at 0.05%.
(§4) BRAF and CRAF kinase reactions were carried out for a total of 2 hours at 30° C. and then stopped by ½ dilution in ADP-Glo Reagent (cat #V9102; Promega; part V912C). Reactions were then incubated for 1 h at room temperature before addition of one volume of Kinase Detection Reagent (cat #V9102; Promega; part V917A). Plates were then equilibrated at room temperature for 30 minutes before detection of luminescence on a Synergy Neo2 plate reader (Biotek). The effect of each compound dilution on BRAF and CRAF kinase activity was expressed as % inhibition and calculated as follows. First, the internal 100% inhibition control (average of luminescence in kinase reactions comprising kinase dead MEK1 substrate alone) was subtracted from each data point. The average of DMSO (vehicle) controls (set as 0% inhibition) was established and used to calculate % inhibition:
(§5) IC50 values were obtained by plotting the kinase inhibition values and fitting the dose-activity curves using a log(agonist) versus response−variable slope (four parameters) function using either GraphPadPrism (V7.0) or Dotmatics Screening Ultra platform. Standards included in the ARAF kinase assay were Belvarafenib (MedChem Express cat #HY-109080; CAS #1446113-23-0), LXH254 (MedChem Express cat #HY-112089; CAS #1800398-38-2) and BGB283 (cat #HY-18957; CAS #1446090-79-4).

[3] = molecular target: CRAF (Homo sapiens, UniProt P04049); assay: CRAF kinase activity assay (ADP-Glo); settings: read-out: Kinase IC50 CRAF
Procedure: as §1, §2, §3, §4, §5

| Compound | IC50 ([1]; Table 3, 1 h treatment) [nM] | IC50 ([2]; Table 3) [nM] | IC50 ([3]; Table 3) [nM] | HCT116 pERK % Ymin (lowest value of the IC50 curve) ([1]; HCT116 cells) [%] | IC50 ([1]; HCT116 cells, pERK) [nM] | IC50 ([2]; BRAF biochemical kinase assay) [nM] | IC50 ([3]; CRAF biochemical kinase assay) [nM] | HCT116 (Ymin %) ([1]; Table 3) [%] |
| --- | --- | --- | --- | --- | --- | --- | --- | --- |
| Cc1c(F)cccc1S(=O)(=O)Nc1ccc(F)c(Nc2ncnc3cnc(-n4cc(S(=O)(=O)N(C)CCN(C)C)c5ccccc54)nc23)c1F | < 500 | < 1 | < 10 | – | – | – | – | −3 |
| COc1ccc(S(=O)(=O)Nc2ccc(F)c(Nc3ncnc4cnc(-n5cc(S(=O)(=O)N(C)CCN(C)C)c6ccccc65)nc34)c2F)c(C)c1F | < 500 | 1 to 10 | 10 to 50 | – | – | – | – | −4 |
| Cc1c(Cl)cccc1S(=O)(=O)Nc1ccc(F)c(Nc2ncnc3cnc(-n4cc(S(=O)(=O)N(C)CCN(C)C)c5ccccc54)nc23)c1F | 500 to 1000 | – | < 10 | – | – | – | – | −5 |

The next lines start with results.

| IC50 ([1]; Table 3, 1 h treatment) [nM] | IC50 ([2]; Table 3) [nM] | IC50 ([3]; Table 3) [nM] | HCT116 pERK % Ymin (lowest value of the IC50 curve) ([1]; HCT116 cells) [%] | IC50 ([1]; HCT116 cells, pERK) [nM] | IC50 ([2]; BRAF biochemical kinase assay) [nM] | IC50 ([3]; CRAF biochemical kinase assay) [nM] | Compound | HCT116 (Ymin %) ([1]; Table 3) [%] |
| --- | --- | --- | --- | --- | --- | --- | --- | --- |
| 1000 to 10000 | 1 to 10 | < 10 | – | – | – | – | O=S(=O)(Nc1ccc(F)c(Nc2ncnc3cnc(-n4cnc5c(F)cccc54)nc23)c1F)c1cccc(Cl)c1Cl | 3 |
| < 500 | < 1 | < 10 | – | – | – | – | CN(C)CCN(C)S(=O)(=O)c1cn(-c2ncc3ncnc(Nc4c(F)ccc(NS(=O)(=O)c5cccc(Cl)c5Cl)c4F)c3n2)c2ccccc12 | −4 |
| – | – | – | −14 | < 500 | 1 to 10 | < 10 | O=S(=O)(Nc1cc(F)c(F)c(Nc2ncnc3cnc(-n4cnc5c(N6CCC[C@H](O)C6)cccc54)nc23)c1F)c1cccc(Cl)c1Cl | – |
| – | – | – | −9 | < 500 | 1 to 10 | < 10 | CCC1(O)CCN(c2cccc3c2ncn3-c2ncc3ncnc(Nc4c(F)c(F)cc(NS(=O)(=O)c5cccc(Cl)c5Cl)c4F)c3n2)CC1 | – |
| < 500 | 1 to 10 | < 10 | – | – | – | – | CCC1(O)CCN(c2cccc3c2ncn3-c2ncc3ncnc(Nc4c(F)ccc(NS(=O)(=O)c5scc(Cl)c5Cl)c4F)c3n2)CC1 | 5 |
